By UniProt entry, the sequences of proteins in these tests, tags left out. Where a name states a change or a piece, a line headed by the entry shows the natural chain unless it says otherwise.
UniProt P29597: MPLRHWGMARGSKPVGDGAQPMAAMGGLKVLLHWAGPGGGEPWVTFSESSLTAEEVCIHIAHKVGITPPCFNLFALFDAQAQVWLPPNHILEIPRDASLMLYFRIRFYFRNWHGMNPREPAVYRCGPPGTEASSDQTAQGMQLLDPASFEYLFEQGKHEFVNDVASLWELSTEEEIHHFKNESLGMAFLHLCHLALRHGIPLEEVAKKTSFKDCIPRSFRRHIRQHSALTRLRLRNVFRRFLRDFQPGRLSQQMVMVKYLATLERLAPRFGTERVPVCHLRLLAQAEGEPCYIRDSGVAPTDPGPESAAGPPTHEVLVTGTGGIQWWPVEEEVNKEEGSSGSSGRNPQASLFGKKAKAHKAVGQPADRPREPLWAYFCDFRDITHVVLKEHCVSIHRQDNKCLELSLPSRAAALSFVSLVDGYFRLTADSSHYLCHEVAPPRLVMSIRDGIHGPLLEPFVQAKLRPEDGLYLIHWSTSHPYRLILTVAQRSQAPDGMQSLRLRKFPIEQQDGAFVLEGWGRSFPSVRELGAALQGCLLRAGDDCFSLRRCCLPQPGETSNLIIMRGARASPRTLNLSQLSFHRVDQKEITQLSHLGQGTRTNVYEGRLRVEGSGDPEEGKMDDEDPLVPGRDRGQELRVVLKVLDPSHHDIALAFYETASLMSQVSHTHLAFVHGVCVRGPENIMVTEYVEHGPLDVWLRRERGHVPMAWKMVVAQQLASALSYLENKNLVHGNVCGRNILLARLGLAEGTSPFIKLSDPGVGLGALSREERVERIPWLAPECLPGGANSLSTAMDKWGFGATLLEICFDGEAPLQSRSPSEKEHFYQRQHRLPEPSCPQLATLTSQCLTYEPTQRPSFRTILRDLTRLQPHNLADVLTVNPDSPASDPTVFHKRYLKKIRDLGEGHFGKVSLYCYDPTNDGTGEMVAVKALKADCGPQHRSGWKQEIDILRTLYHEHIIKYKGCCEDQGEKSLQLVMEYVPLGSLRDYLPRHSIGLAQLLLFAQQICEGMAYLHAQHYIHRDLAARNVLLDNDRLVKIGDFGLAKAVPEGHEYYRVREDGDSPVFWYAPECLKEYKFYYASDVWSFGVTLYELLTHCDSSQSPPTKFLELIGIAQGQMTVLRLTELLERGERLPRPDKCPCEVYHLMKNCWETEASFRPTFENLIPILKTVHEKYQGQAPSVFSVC

According to ChEMBL document CHEMBL4414617, “Identification of 2-Imidazopyridine and 2-Aminopyridone Purinones as Potent Pan-Janus Kinase (JAK) Inhibitors for the Inhaled Treatment of Respiratory Diseases” (J Med Chem, 2019):

Target: Non-receptor tyrosine-protein kinase TYK2 (Homo sapiens, UniProt P29597)

- IC50: 130 nM
Structure (SMILES): N#CC[C@H]1CC[C@H](n2c(=O)[nH]c3cnc(Nc4ccc[nH]c4=O)nc32)CC1
